Target: CaV2.2 (Homo sapiens, UniProt Q00975)
Assay: VIPR optical membrane potential assay with electrical stimulation
Conditions: Table 3, biological assay data

IC50: < 5 µM
Structure (SMILES): CCCCN(C)C(=O)c1oc2ccc(S(=O)(=O)N3CCCCCC3)cc2c1C
